# Ab-91 heavy chain CDR variants: yeast mating affinities

Values reported by Engelhart et al. 2022, doi:10.1038/s41597-022-01779-4 (FLAb copy).

The target is the same throughout: PDVDLGDISGINAS, from the HR2 region of SARS-CoV-2 spike.

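The starting antibody came from a phage panning campaign against this peptide. Variants in AAYL51 differ from the parent at up to three CDR positions; double and triple changes were sampled at random. The assay is AlphaSeq: two haploid yeast populations carry antibody and antigen on their surface. Pairs that bind mate more often; barcode pairs of the diploids are counted by sequencing. The ratio of observed to expected reads was calibrated, replicate by replicate, on BCL2-family standards whose Kd was known from biolayer interferometry. The assay was run in three technical replicates.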

The variants keep the light chain, the linker and the frameworks of Ab-91 (scFv order VL, a (GGGGS)3 linker, VH).
VL: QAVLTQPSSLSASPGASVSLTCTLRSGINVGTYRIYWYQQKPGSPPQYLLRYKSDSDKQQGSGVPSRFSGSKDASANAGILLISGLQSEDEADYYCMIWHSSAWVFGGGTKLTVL
VH: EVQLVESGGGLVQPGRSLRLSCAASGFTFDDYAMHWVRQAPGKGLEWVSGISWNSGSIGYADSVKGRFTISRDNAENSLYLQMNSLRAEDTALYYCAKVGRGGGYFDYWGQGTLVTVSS

The parent's heavy chain CDRs are GFTFDDYAMH, GISWNSGSIGYADSVK, VGRGGGYFDY; each variant's own CDRs replace them letter for letter.
Values are log10 of the apparent Kd in nM; lower means stronger binding.
Averages over replicates are reported, and they cover detected replicates only.
An entry "no signal" has no value in the source: the pair was not observed among the diploids in any replicate. This suggests poor binding but is not conclusive.
The list is sorted by this average, lowest first, undetected variants last.
For reference, the parent read 1.86 as the reference entry and 0.88 as a member of this library.
Background: pairings of library AAYL51 with three empty control strains gave a value in 21% of cases (median 4.54, 5th percentile 3.26). Values in that range, when seen in few replicates, are hard to tell from nonspecific mating.

CDR-H1 | CDR-H2 | CDR-H3 | log10 Kd (nM), mean | replicates with signal
GFTFDYYAMH | GISWNSGSIGYAESVK | VKRGGGYFDY | 0.19 | 3 of 3
GFTFDDYGMH | GISWNMGSIGYADSVK | VGRGGGCFDY | 1.16 | 3 of 3
GFTFGDYAMH | GISWNSGSIGAADSVK | VGRGGGEFDY | 1.73 | 3 of 3
GFTFDNYAMH | GISWNSGSIGYADSVG | VGRGGGYFDQ | 1.77 | 3 of 3
GFTFDDTAMH | GISWNSNSIGYADSVK | VGRGGGYLDY | 2.02 | 1 of 3
GFTFDDYAMH | GISWNSMSIGYAESVK | VGRGGGYYDY | 2.26 | 3 of 3
GFTFDDYAMH | GTSANSGSINYADSVK | VGRGGGYFDY | 2.33 | 3 of 3
GFTFDDYAMH | GISSNSGSIWYADSVK | VGRGGGYFDY | 2.78 | 1 of 3
GFAFDDYYMH | GISWNSGSIGYADSVK | VGRGGGYFDF | 2.88 | 3 of 3
GFTFDDYAKH | GISWNSGSIGYADWVK | VGRGGGYFDY | 2.99 | 1 of 3
GFTFDDYAMH | GISWNSGSGGYADQVK | NGRGGGYFDY | 3.17 | 1 of 3
MFTFDDYAMH | GISWNSGSIGYAPSVK | VGRGGGYFDD | 3.32 | 3 of 3
GFTFDDYAMH | GSSGNSGAIGYADSVK | VGRGGGYFDY | 3.33 | 1 of 3
GFTFDQYAMH | GISWMSGNIGYADSVK | VGRGGGYFDY | 3.38 | 2 of 3
GFTFDDYAMH | GISWNAGSIGQADSVK | VGRGGGYFDY | 3.61 | 2 of 3
GANFDDYAMH | GISWNSGSMGYADSVK | VGRGGGYFDY | 3.75 | 3 of 3
GFTFDDYAMH | GISWNSGSIGYPDSVK | VGRGGGQFFY | 3.79 | 2 of 3
GFTFFDYAMH | GIHWNSGSIGYADSVK | VGRGGRYFDY | 3.93 | 1 of 3
GFTFDPYAMH | RISWNSGSIGYADSVK | VGRGGGYFNY | 4.09 | 1 of 3
GFCFDDYAMH | GISLGSGSIGYADSVK | VGRGGGYFDY | 4.24 | 1 of 3
GFTFDDLAMH | GISWNYGKIGYADSVK | VGRGGGYFDY | 4.25 | 1 of 3
GFTFDDYAMH | GISWNSGSIGYADSVK | VMPGWGYFDY | 4.35 | 2 of 3
GFTFDDYAMD | GISWNSGSIGWADSVK | VGRGGGYFPY | 4.36 | 1 of 3
GMKFDDYAMH | GISWNSGNIGYADSVK | VGRGGGYFDY | 4.37 | 1 of 3
GFTFDDYAMP | GISWNSGQQGYADSVK | VGRGGGYFDY | 4.39 | 1 of 3
GFTFDDTAMH | GVSWNSGSIGYACSVK | VGRGGGYFDY | 4.39 | 1 of 3
GFTFDDHAMH | GISWNSGSIGYAPSVK | VGRGGGGFDY | 4.46 | 1 of 3
GFTFDDTAMH | GISVHSGSIGYADSVK | VGRGGGYFDY | 4.46 | 1 of 3
GFTFDDYAMH | GISWNSGSIGYADSVK | VWRGMGYFTY | 4.57 | 1 of 3
GSTFDDYAMH | GISWNSGSIGYADDVK | VGRGGNYFDY | 4.58 | 1 of 3
GFTFDDYAMH | GISWNSGSIGYADSCK | VGRGGGYFFY | 4.60 | 1 of 3
GFTFDDYAMH | GISWNSGSIGSYDSVK | VGRGGYYFDY | 4.61 | 2 of 3
GFTVDDYAMH | GISINSGSIGYADSVK | VGRCGGYFDY | 4.68 | 2 of 3
GFTFDDYAMH | GISWNSGTIGYADFVK | VGRGGGYFDY | 4.72 | 2 of 3
GHTFDSYAMH | GISWNSGSIGYADSVK | VGRGGGYFDY | 4.86 | 3 of 3
GFTFCDYAMH | GISWNSGSIGYADSNK | VGRGGGYPDY | 4.89 | 3 of 3
GFTFDDYAMH | GISWNGGSINYADSVK | VGRMGGYFDY | 4.99 | 1 of 3
GCTFDDYQMH | GISWNSGSIGYADSVK | VGRGYGYFDY | 5.05 | 2 of 3
GFTFWDYAMH | NISWNNGSIGYADSVK | VGRGGGYFDY | 5.05 | 2 of 3
GFTNDDYAMH | GISWNSGSIGYAASVK | VGRGQGYFDY | 5.05 | 1 of 3
SFTFDDYAMH | GISWNSGSIGYADSVK | LKRGGGYFDY | 5.07 | 3 of 3
GFTFDDYAMH | GISWNSGSIGYADSVK | AVRWGGYFDY | 5.23 | 3 of 3
GFTFDDYAMH | GIDWNSGSIGYADSVK | VGRGGGIFDY | 5.35 | 3 of 3
GFTFDDYAPH | GISWNSGSIGYCDSVK | VLRGGGYFDY | 5.78 | 1 of 3
GFGFDDYAMH | GESWNSGSIGYADSVK | VGRGGGYFDY | 5.83 | 1 of 3
GFTSDDYTMH | GISWNSGSICYADSVK | VGRGGGYFDY | 5.89 | 1 of 3
GFTFDDYAMH | GISWNSGSIGYADSNK | VGRGQGHFDY | 6.13 | 1 of 3
GFTFDDWAMH | GYSWNSGSIGYADSVK | VGRGGGYFIY | no signal | 0 of 3
GFHTDDYAMH | GISWNSGSIGYADSVW | VGRGGGYFDY | no signal | 0 of 3
GFTFDDYAMT | GISWASGSIGYASSVK | VGRGGGYFDY | no signal | 0 of 3
GFTFDDYAMH | GESWNSGSIGWADSVK | VGRMGGYFDY | no signal | 0 of 3
GFTFDDYAMH | GISWNSGSIGSADSVK | VGRGHGYFVY | no signal | 0 of 3
GFTFDDYAMH | GISWNSGSIGAADSVK | VGRGGLYFDY | no signal | 0 of 3
GFTFDDYAMH | GISWNSGSIGLADSVK | VGRWGGFFDY | no signal | 0 of 3
GQTFQDYAMH | GISWNSGSIGYADSVK | VGRGQGYFDY | no signal | 0 of 3
GFTFDDYAMH | GISWISGSIVYADSVK | VGRGGDYFDY | no signal | 0 of 3
GRTFDDTAMH | GISWNSGSIGEADSVK | VGRGGGYFDY | no signal | 0 of 3
GFTFDDYAMH | GISWNSGSIGYEDSVK | VGRGPGYFYY | no signal | 0 of 3
GFTFDDRAMH | GPSWNSGSIGYADSVK | VGRGGGYFIY | no signal | 0 of 3
GFTFDDYAMH | GISWNSGSIGYADSVH | VGRGGWYFDY | no signal | 0 of 3
GFTFDDYHMH | GISWNSGSIGVADSVK | VGRGGGYFDY | no signal | 0 of 3
GFTFDDYAMH | GPSWNSGSIGDADSVK | VGRIGGYFDY | no signal | 0 of 3
GFTFDDYAMG | GISWNWGLIGYADSVK | VGRGGGYFDY | no signal | 0 of 3
GFTFDDYAMH | GISWNSGSIGYAWSIK | VGRGGGYFDC | no signal | 0 of 3
GFTFDDYAMH | GISWNSGSIGYADHVK | VGRGGGYFFY | no signal | 0 of 3
GQTFDDYAMH | GISGNSGSIGSADSVK | VGRGGGYFDY | no signal | 0 of 3
GFTFDAYGMH | GISWNSGSIGYAGSVK | VGRGGGYFDY | no signal | 0 of 3
GFTFDDYTIH | GISWNSGSIGYADSVK | AGRGGGYFDY | no signal | 0 of 3
GFTFDDYAMH | GISWFSGSIGVADSVY | VGRGGGYFDY | no signal | 0 of 3
GFTFDNYAMH | LISWNSGSIGWADSVK | VGRGGGYFDY | no signal | 0 of 3
GNTYDDWAMH | GISWNSGSIGYADSVK | VGRGGGYFDY | no signal | 0 of 3
GFTFDDYMMH | GISWNSGSIGEAYSVK | VGRGGGYFDY | no signal | 0 of 3
GFFFDDYAMH | GISWNSGSIGYADSVK | VGDGSGYFDY | no signal | 0 of 3
GFTFDDYAMH | GISWNSGLIGYAYSVK | VGTGGGYFDY | no signal | 0 of 3
GFTFDDYAMH | GISWNSGSPGRADSDK | VGRGGGYFDY | no signal | 0 of 3

Repeated from above, the 7 best binders with a signal in all replicates:

CDR-H1 | CDR-H2 | CDR-H3 | log10 Kd (nM), mean | replicates with signal
GFTFDYYAMH | GISWNSGSIGYAESVK | VKRGGGYFDY | 0.19 | 3 of 3
GFTFDDYGMH | GISWNMGSIGYADSVK | VGRGGGCFDY | 1.16 | 3 of 3
GFTFGDYAMH | GISWNSGSIGAADSVK | VGRGGGEFDY | 1.73 | 3 of 3
GFTFDNYAMH | GISWNSGSIGYADSVG | VGRGGGYFDQ | 1.77 | 3 of 3
GFTFDDYAMH | GISWNSMSIGYAESVK | VGRGGGYYDY | 2.26 | 3 of 3
GFTFDDYAMH | GTSANSGSINYADSVK | VGRGGGYFDY | 2.33 | 3 of 3
GFAFDDYYMH | GISWNSGSIGYADSVK | VGRGGGYFDF | 2.88 | 3 of 3